For 3 molecules, membrane potential signal change results are on record in PubChem BioAssay AID2780 (Johns Hopkins Ion Channel Center, 2010).

Only a part is listed here, and it is no random draw. Active and inactive are the calls of the source.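 How the source made its calls: active means membrane potential signal shifting up or down by more than 3 SD of buffer-only wells, on both duplicate plates; inactive means the rest.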

The test can be described thus: membrane potential modulation in parental HEK293, confirmation, counter-screen for TRPC6 inhibitor project, cell-based (AID 2780).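 Further: plate controls were buffer EC0 wells for no effect and acetylcholine ECmax wells for full effect.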 Particulars: parental HEK293 membrane potential dye fluorescence; at 10 µM. On the technique in general: A counterscreen serves to expose hits that act by an unwanted route or on another target.

As for `CCC1=CC2Cc3nc4ccc(Cl)cc4c(N)c3C(C1)C2` (stereo not drawn), the membrane potential signal change was active: -258%. In the case of `CN1CCCC(OC(=O)C(c2ccccc2)c2ccccc2)C1` (stereo not drawn) it was active: 5.09%; in that of `O=[N+]([O-])c1ccc(O)c(/C=N/Nc2ccc([N+](=O)[O-])cc2[N+](=O)[O-])c1`, active: -174%.
